Columns and labels:
[1] = tested on: TLR2 induced IL-6 in peripheral blood mononuclear cells (PBMCs); assay: PBMC TLR2 Induced IL-6 Assay; format: cell-based; details: human PBMCs, 10 μg/ml lipoteichoic acid for 5 hours, IL-6 by ELISA; for IC50: read-out: Cell IC50, value without asterisk
IRAK4 = IRAK4 (Homo sapiens (Human), UniProt Q9NWZ3); assay: IRAK4 Inhibition Assay; format: biochemical; details: read-out: IRAK4 IC50; ATP 500 μM; IRAK4 0.6 nM; 60 min at room temperature

Chains of the proteins cited; added tags and fusions are not shown.
UniProt Q9NWZ3, whole entry: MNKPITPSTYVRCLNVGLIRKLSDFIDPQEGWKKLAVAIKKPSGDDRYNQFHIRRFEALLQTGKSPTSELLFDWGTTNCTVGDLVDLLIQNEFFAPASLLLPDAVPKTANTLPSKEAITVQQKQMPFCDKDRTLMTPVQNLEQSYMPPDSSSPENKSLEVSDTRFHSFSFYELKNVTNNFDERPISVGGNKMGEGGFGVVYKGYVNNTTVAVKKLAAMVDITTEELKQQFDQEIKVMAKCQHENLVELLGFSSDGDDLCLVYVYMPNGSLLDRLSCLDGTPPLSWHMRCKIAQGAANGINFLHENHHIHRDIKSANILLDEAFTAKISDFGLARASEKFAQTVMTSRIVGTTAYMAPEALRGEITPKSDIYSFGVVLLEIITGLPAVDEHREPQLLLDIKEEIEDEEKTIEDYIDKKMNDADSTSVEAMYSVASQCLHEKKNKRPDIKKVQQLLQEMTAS

In the case of O=C(N[C@H]1CC[C@H](O)CC1)c1cnc(Nc2nc3scnc3cc2F)cc1NC1CC1, the EC50 ([1]; read-out: Cell EC50 (asterisk), EC50 determinations are indicated with an asterisk) is reported as 539 nM.
O=C(NCCC1CCN(Cc2ccccc2)CC1)c1cnc(Nc2ccc3ncsc3c2)cc1NC1CCCC1 gave an IC50 [1] of 492 nM and an IC50 (IRAK4) of 6.3 nM.
For CC(C)(O)[C@H](F)CNC(=O)c1cnc(Nc2ccc3ncsc3c2)cc1NC12CC3CC(CC(N)(C3)C1)C2, the IC50 [1] was 156 nM and the IC50 (IRAK4) was 5.7 nM.

From US9546153B2, “Bicyclic heterocycle substituted pyridyl compounds useful as kinase modulators” (BRISTOL-MYERS SQUIBB COMPANY, priority 2012, dated 2017)
